Km, kcat and kcat/Km data for one substance are collected here from patent US20090275085A1, “Enzyme for Obtaining Prebiotic Oligosaccharides” (CONSEJO SUPERIOR DE INVESTIGACIONES CIENTIFICAS, priority 2004, published 2009).

In this series the test system is maltose. As to the kind of experiment: purified protein, by the assay type. The conditions noted are these: other: 30 minutes, 100 ng of enzyme; starch supplied by Avebe, 8100 Da.

With “X. dendrorhous α-glucosidase (purified enzyme) (Phaffia rhodozyma)”, the Km turned out to be 2710 µM, the kcat is 7.67 s⁻¹ and the kcat/Km stood at 2830 M⁻¹ s⁻¹.
